Earlier results in paper PMC140124 (Biological Procedures Online, 1998).
Read-outs that look alike come from different tables or passages of the source.

Conditions: ref [1]

Substance: Tyr-Gly-Gly-Phe-Leu
- appearance on the serosal side (absence of peptidase inhibitors): did not appear on the serosal side
- appearance on the serosal side (presence of peptidase inhibitors): did not appear on the serosal side
